Reference: EP4831171A1, “FUSED RING COMPOUND, PHARMACEUTICAL COMPOSITION COMPRISING SAME, AND USE THEREOF” (dated 2026)

Chains of the proteins cited; added tags and fusions are not shown.
UniProt Q14191, whole entry: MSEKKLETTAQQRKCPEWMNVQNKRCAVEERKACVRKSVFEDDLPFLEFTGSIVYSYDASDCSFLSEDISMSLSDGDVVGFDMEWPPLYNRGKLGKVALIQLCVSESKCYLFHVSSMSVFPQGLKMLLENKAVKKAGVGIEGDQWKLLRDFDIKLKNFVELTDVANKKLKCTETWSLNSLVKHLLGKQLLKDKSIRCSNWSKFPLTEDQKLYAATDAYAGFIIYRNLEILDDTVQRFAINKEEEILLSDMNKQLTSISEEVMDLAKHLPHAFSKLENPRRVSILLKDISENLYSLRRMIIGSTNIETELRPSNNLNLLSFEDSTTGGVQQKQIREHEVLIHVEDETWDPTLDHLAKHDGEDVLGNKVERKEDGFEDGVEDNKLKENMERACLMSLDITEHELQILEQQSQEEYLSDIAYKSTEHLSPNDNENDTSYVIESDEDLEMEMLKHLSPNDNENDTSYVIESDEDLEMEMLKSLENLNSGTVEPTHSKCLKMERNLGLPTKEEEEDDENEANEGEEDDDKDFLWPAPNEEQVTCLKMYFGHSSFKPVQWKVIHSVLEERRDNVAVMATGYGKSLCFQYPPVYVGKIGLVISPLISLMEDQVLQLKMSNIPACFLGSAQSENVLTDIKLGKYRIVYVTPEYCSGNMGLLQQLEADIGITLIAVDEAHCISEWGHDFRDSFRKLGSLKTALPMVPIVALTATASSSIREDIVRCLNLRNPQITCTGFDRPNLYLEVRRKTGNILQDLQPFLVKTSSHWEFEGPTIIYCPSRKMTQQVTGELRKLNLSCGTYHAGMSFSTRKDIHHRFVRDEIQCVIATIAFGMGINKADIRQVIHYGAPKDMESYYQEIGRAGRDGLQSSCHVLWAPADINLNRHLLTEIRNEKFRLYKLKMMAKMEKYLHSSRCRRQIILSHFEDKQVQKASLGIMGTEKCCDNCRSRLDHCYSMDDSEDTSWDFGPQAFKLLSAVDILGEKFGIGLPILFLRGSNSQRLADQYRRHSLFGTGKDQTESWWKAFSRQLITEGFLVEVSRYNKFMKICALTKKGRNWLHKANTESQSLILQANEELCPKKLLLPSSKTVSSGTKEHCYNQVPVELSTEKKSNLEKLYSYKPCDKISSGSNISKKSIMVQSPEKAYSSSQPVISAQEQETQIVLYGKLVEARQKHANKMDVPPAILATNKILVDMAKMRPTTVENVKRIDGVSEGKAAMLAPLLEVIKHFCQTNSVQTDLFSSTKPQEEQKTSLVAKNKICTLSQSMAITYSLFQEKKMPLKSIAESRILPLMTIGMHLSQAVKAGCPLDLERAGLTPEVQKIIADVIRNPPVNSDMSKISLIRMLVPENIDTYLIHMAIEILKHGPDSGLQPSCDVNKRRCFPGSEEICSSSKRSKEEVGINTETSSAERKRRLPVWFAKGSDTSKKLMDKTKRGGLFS

What was measured:
WRN helicase = WRN helicase (Homo sapiens, UniProt Q14191); test: ATPase activity assay of WRN helicase (ADP-Glo); conditions: read-out: WRN ATPase activity inhibition IC50; WRN 10 nM, ATP 300 µM, FLAP26 0.4 nM; 3 h preincubation at 37 °C, 30 min reaction at room temperature
Procedure: The ADP content generated by ATP hydrolysis catalyzed by WRN helicase was measured using a commercial ADP-Glo assay kit (Promega, #V9102), and the measured ADP level could reflect the ATPase activity of WRN helicase.
The 45 nt oligonucleotide single-stranded DNA FLAP26 ([…]) was synthesized by Azenta. Reference was made, for example, to Brosh RM Jr et al., J Biol Chem, 2002 Jun;277(26):23236-45. A reaction buffer (30 mM Tris pH 7.5, 2 mM MgCl2, 0.02% BSA, 50 mM NaCl, 0.1% pluronic F127) was prepared. […]
5 µL of the above mixture was transferred to a 384-well white plate, and 5 µL ofADP-Glo reagent was added. […] The mixture was mixed well by shaking and incubated at room temperature in the dark for 30 min, and then chemiluminescence readings were recorded. The inhibition rate of the compound on the enzyme activity was calculated, and the inhibition rate value and the logarithm value of the compound concentration were fitted using non-linear regression (dose response-variable slope) to obtain the IC50 value of the test compound. […]

SW48 cell line = test: Inhibitory activity assay for tumor cell proliferation (CellCounting-Lite), SW48; conditions: read-out: SW48 Proliferation inhibition IC50; SW48 cells with microsatellite instability; treatment for 4 days; highest concentration 10 µM
Procedure: (§1) After treatment of SW48 cell lines with microsatellite instability and the control DLD1-WRN-KO cell line using the test compounds for 4 days, ATP levels were measured using a CellCounting-Lite kit from Vazyme to evaluate inhibitory effects of the test compounds on the growth of tumor cell lines.
(§2) In the present application, the SW48 cell line and the DLD1-WRN-KO cell line were seeded into a 96-well cell culture plate at an appropriate cell density. After 24 h, the cells were treated with the test compounds at the highest concentration of 10 µM, followed by 1:3 serial dilution to obtain 9 concentration gradients, and a DMSO treatment group was set up separately. The cells were cultured in an incubator at 37 °C with 5% CO2 for 4 days. […] Chemiluminescence values were read using a Thermo Varioskan LUX-3020 multifunctional microplate reader for conversion to proliferation indices to calculate the inhibition rate of the compound on tumor cell proliferation, and the inhibition rate value and the logarithm value of the compound concentration were fitted using non-linear regression (dose response-variable slope) to obtain the IC50 value of the compound. […]

DLD1-WRN-KO cell line = test: Inhibitory activity assay for tumor cell proliferation (CellCounting-Lite), DLD1-WRN-KO control; conditions: read-out: DLD1-WRN-KO Proliferation inhibition IC50; WRN knockout DLD1 cells (off-target control); treatment for 4 days; highest concentration 10 µM
Procedure: A DLD1-WRN-KO cell line was constructed by stably knocking out the WRN gene in DLD1 cells using CRISPR/Cas9 technology, and the constructed cell line was used to evaluate potential off-target effects of the compounds.
as §1, §2

SMILES: CCc1c(N2CCN(C(=O)c3ncnc(C)c3O)CC2)c(=O)c2nc3ccccc3nc2n1CC(=O)Nc1ccc(C(F)(F)F)cc1Cl
- IC50 (WRN helicase): 9 nM
- IC50 (SW48 cell line): 14 nM
- IC50 (DLD1-WRN-KO cell line): > 10000 nM
